Measurements taken from patent publication US20240376091A1, “THIADIAZOLEAMIDE DERIVATIVES AND THEIR APPLICATIONS” (ZHEJIANG UNIVERSITY, priority 2021, published 2024).

Chains of the proteins cited; added tags and fusions are not shown.
UniProt P10275, whole entry T878A: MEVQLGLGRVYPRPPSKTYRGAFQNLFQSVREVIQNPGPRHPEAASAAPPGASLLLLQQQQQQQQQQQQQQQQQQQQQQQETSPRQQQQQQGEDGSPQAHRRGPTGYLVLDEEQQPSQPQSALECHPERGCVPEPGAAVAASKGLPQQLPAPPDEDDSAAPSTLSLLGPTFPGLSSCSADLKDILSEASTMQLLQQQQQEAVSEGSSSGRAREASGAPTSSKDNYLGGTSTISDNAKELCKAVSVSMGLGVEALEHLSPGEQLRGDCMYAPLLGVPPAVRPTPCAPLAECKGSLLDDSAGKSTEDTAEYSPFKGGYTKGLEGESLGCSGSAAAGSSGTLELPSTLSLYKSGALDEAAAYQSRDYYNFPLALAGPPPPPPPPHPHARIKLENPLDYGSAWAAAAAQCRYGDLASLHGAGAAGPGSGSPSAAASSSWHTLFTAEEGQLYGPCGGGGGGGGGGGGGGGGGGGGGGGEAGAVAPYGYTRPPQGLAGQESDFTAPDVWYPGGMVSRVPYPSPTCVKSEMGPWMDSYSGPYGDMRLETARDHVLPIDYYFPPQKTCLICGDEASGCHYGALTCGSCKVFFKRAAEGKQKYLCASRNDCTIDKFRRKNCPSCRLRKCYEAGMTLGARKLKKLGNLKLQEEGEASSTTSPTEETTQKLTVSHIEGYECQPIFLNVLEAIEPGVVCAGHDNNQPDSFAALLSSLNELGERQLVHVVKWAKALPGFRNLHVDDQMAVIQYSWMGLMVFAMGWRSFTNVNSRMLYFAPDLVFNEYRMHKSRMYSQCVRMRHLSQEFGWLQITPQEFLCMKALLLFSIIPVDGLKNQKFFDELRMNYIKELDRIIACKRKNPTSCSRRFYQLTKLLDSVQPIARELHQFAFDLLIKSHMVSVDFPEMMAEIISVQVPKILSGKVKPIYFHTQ

Target: AR (Homo sapiens, UniProt P10275, T878A)
Test: AR transcriptional activity, LNCaP-ARR2PB-eGFP reporter cells
Assay type: cell-based
Settings: read-out: IC50 AR transcriptional activities, 5 nM DHT, 72 hours

Cc1oc(-c2cccc(C(F)(F)F)c2)cc1C(=O)Nc1nc(CN2CCCCC2)ns1 gave an IC50 of 0.29 µM.
